This is an account of results in patent US20130225488A1 (CADILA HEALTHCARE, published 2013).

The experiment concerns the target Human GLP-1 receptor (human) (UniProt P43220). The experiment is described as follows: cell-based or functional assay.

Substance “Exendin-4 (from UniProt P26349) (peptide)” had a cAMP release, % activity with respect to control; test compound 1 nM of 89%; a cAMP release, % activity with respect to control; test compound 10 nM of 96%; a cAMP release, % activity with respect to control; test compound 100 nM of 99%; a cAMP release, % activity with respect to control; test compound 1 µM of 99%. The same substance came in with a cAMP release, % activity with respect to control; test compound 10 µM of 99%.
